Laboratory results reported in publication PMC6479711, “Chemical Constituents of Anacardium occidentale as Inhibitors of Trypanosoma cruzi Sirtuins” (Molecules, 2019).

Test system: Human primary skin fibroblasts (hFIB)
Assay: Host cell toxicity (AlamarBlue)
Format: cell-based
Experimental: Human primary skin fibroblasts (hFIB) were obtained from patient skin biopsy and cultured in Dulbecco’s Modified Eagle Medium (DMEM) supplemented with 10% fetal bovine serum (FBS) and Penicillin-Streptomycin (0.2 U/mL) (all from Gibco/Life Technologies, Grand Island, NY, USA). The cells were seeded on 96-well plates at 3 × 10^4 cells/mL and treated with the drugs for 72 h of incubation time. Following the treatments, cells were washed with saline solution twice, and cell viability was determined by the AlamarBlue assay (Thermo Fisher Scientific, Carlsbad, CA, USA), according to the manufacturer’s instructions. Colorimetric readings were performed after 24 h at 570 and 600 nm. Fifty-percent cytotoxic concentration (CC50) values were calculated using data points gathered from three independent experiments.

SMILES	SI (selectivity index), ratio of CC50 (hFIB) to EC50 (amastigote)
CCC/C=C\C/C=C\CCCCCCCc1cccc(O)c1C(=O)O [Compound 5, 2-Hydroxy-6-(8Z,11Z)-8,11-pentadecadien-1-ylbenzoic acid]	>2
CCCCCC/C=C\CCCCCCCc1cccc(O)c1C(=O)O [Compound 6, 2-Hydroxy-6-(8Z)-8-pentadecenylbenzoic acid]	>2
